Results on 1 compound are retold here after ChEMBL document CHEMBL2057164, “Head-to-head prenyl tranferases: anti-infective drug targets” (J Med Chem, 2012).

The target in this experiment is T1, 4,4'-diapophytoene synthase (Staphylococcus aureus, UniProt A9JQL9).
T1 sequence (A9JQL9 whole entry): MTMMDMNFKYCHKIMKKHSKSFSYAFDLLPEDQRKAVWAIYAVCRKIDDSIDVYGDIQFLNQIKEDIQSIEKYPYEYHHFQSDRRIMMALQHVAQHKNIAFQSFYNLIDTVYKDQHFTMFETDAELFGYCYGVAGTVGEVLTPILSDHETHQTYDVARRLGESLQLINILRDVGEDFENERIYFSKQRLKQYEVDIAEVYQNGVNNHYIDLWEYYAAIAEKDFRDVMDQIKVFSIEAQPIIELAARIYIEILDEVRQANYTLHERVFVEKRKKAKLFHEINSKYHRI
The experiment in a line: Inhibition of Staphylococcus aureus ATCC 27659 dehydrosqualene synthase expressed in Escherichia coli BL21(DE3) after 30 mins by spectrophotometric analysis.

Broadly, the Ki is a measure of affinity in units of concentration, obtained from inhibition or displacement. The low end stands for a stronger hold on the target, the high end for a looser hold on the target. Turning to `N#CSCCOc1ccc(Oc2ccccc2)cc1`, the Ki was 1.5 µM.
